Data from ChEMBL document CHEMBL3045166, “Structure-function studies of omega-atracotoxin, a potent antagonist of insect voltage-gated calcium channels” (1999).

tested on: Acheta domesticus; experiment: Insecticidal activity against Acheta domesticus assessed as death compound treated lateroventral thoracic injections between legs 2 and 3 using a 29-gauge needle measured after 48 hr

Going from `CC[C@H](C)[C@H](NC(=O)[C@H](CS)NC(=O)[C@@H](NC(=O)[C@H](CO)NC(=O)[C@@H](N)CO)[C@@H](C)O)C(=O)N1CCC[C@H]1C(=O)N[C@@H](CO)C(=O)NCC(=O)N[C@@H](CCC(N)=O)C(=O)N1CCC[C@H]1C(=O)N[C@@H](CS)C(=O)N1CCC[C@H]1C(=O)N[C@@H](Cc1ccc(O)cc1)C(=O)N[C@@H](CC(N)=O)C(=O)N[C@@H](CCC(=O)O)C(=O)N[C@@H](CC(N)=O)C(=O)N[C@@H](CS)C(=O)N[C@@H](CS)C(=O)N[C@@H](CO)C(=O)N[C@@H](CCC(N)=O)C(=O)N[C@@H](CO)C(=O)N[C@@H](CS)C(=O)N[C@H](C(=O)N[C@@H](Cc1ccc(O)cc1)C(=O)N[C@@H](CCCCN)C(=O)N[C@@H](CCC(=O)O)C(=O)N[C@@H](CC(N)=O)C(=O)N[C@@H](CCC(=O)O)C(=O)N[C@@H](CC(N)=O)C(=O)NCC(=O)N[C@@H](CC(N)=O)C(=O)N[C@H](C(=O)N[C@H](C(=O)N[C@@H](CCCCN)C(=O)N[C@@H](CCCNC(=N)N)C(=O)N[C@@H](CS)C(=O)N[C@@H](CC(=O)O)C(=O)O)C(C)C)[C@@H](C)O)[C@@H](C)O` to `CC[C@H](C)[C@H](NC(=O)[C@H](CS)NC(=O)[C@@H](N)[C@@H](C)O)C(=O)N1CCC[C@H]1C(=O)N[C@@H](CO)C(=O)NCC(=O)N[C@@H](CCC(N)=O)C(=O)N1CCC[C@H]1C(=O)N[C@@H](CS)C(=O)N1CCC[C@H]1C(=O)N[C@@H](Cc1ccc(O)cc1)C(=O)N[C@@H](CC(N)=O)C(=O)N[C@@H](CCC(=O)O)C(=O)N[C@@H](CC(N)=O)C(=O)N[C@@H](CS)C(=O)N[C@@H](CS)C(=O)N[C@@H](CO)C(=O)N[C@@H](CCC(N)=O)C(=O)N[C@@H](CO)C(=O)N[C@@H](CS)C(=O)N[C@H](C(=O)N[C@@H](Cc1ccccc1)C(=O)N[C@@H](CCCCN)C(=O)N[C@@H](CCC(=O)O)C(=O)N[C@@H](CC(N)=O)C(=O)N[C@@H](CCC(=O)O)C(=O)N[C@@H](CC(N)=O)C(=O)NCC(=O)N[C@@H](CC(N)=O)C(=O)N[C@H](C(=O)N[C@H](C(=O)N[C@@H](CCCCN)C(=O)N[C@@H](CCCNC(=N)N)C(=O)N[C@@H](CS)C(=O)N[C@@H](CC(=O)O)C(=O)O)C(C)C)[C@@H](C)O)[C@@H](C)O`, the LD50 rises from 224 pmol/g to 1550 pmol/g.

Compound `CC[C@H](C)[C@H](NC[C@@H](N)CS)C(=O)N1CCC[C@H]1C(=O)N[C@@H](CO)C(=O)NCC(=O)N[C@@H](CCC(N)=O)C(=O)N1CCC[C@H]1C(=O)N[C@@H](CS)C(=O)N1CCC[C@H]1C(=O)N[C@@H](Cc1ccc(O)cc1)C(=O)N[C@@H](CC(N)=O)C(=O)N[C@@H](CCC(=O)O)C(=O)N[C@@H](CC(N)=O)C(=O)N[C@@H](CS)C(=O)N[C@@H](CS)C(=O)N[C@@H](CO)C(=O)N[C@@H](CCC(N)=O)C(=O)N[C@@H](CO)C(=O)N[C@@H](CS)C(=O)N[C@H](C(=O)N[C@@H](Cc1ccccc1)C(=O)N[C@@H](CCCCN)C(=O)N[C@@H](CCC(=O)O)C(=O)N[C@@H](CC(N)=O)C(=O)N[C@@H](CCC(=O)O)C(=O)N[C@@H](CC(N)=O)C(=O)NCC(=O)N[C@@H](CC(N)=O)C(=O)N[C@H](C(=O)N[C@H](C(=O)N[C@@H](CCCCN)C(=O)N[C@@H](CCCNC(=N)N)C(=O)N[C@@H](CS)C(=O)N[C@@H](CC(=O)O)C(=O)O)C(C)C)[C@@H](C)O)[C@@H](C)O` has an LD50 of 1470 pmol/g.
